These results are taken from patent publication US5008245A (University of Kentucky Research Foundation, priority 1988, dated 1991).

Chains of the proteins cited; added tags and fusions are not shown. Residues count along the entry.
UniProt P08246, 30-267 limits assumed: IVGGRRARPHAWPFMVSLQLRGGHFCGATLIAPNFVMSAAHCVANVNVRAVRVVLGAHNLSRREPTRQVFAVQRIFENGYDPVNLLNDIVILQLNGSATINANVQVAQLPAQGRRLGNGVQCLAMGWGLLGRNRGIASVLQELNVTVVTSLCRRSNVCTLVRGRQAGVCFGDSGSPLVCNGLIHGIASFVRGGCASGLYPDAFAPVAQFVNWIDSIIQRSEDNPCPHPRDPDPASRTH

The target of this test is HLE (human leukocyte elastase) (Homo sapiens, UniProt P08246). The test can be described thus: HLE presteady state inhibition kinetics. The settings on record: [I] = 7.6 × 10^-7 M, [E] = 7.6 × 10^-8 M; for kobs: first order rate constant; for kobs /[I]: second order rate constant. Here is the method:
^c First and second order rate constants were determined by presteady
state inhibition kinetics.

For the molecule `COC(=O)CCC(=O)N[C@@H](CCCNC(=O)OCc1ccccc1)C(=O)N[C@@H](C)C(=O)N1CCC[C@@H]1C(=O)CN(C(=O)Oc1ccc([N+](=O)[O-])cc1)C(C)C`, the kobs stood at 0.021 s⁻¹ and the “kobs /[I]” value came to 461 M⁻¹ s⁻¹.
For `COC(=O)CCC(=O)N[C@@H](CCCNC(=O)OCc1ccccc1)C(=O)N[C@@H](C)C(=O)N1CCC[C@H]1C(=O)CN(C(=O)Oc1ccc([N+](=O)[O-])cc1)C(C)C`, the kobs worked out at 0.376 s⁻¹ and the “kobs /[I]” value stood at 8237 M⁻¹ s⁻¹.
